Reference: patent US20080166345A1, “MEDICAMENTS COMPRISING GENE RECOMBINANT ANTIBODY AGAINST GANGLIOSIDE GD3” (KYOWA HAKKO KOGYO CO., LTD., priority 2001, published 2008)

System: GD3 expressing B16 cell B16•29-10
Assay: Antitumor effects of KM871 with human IL-2, mouse syngeneic graft model
Format: in vivo, C57 BL/6 mouse
Conditions: FIG. 4; KM871 50 μg/day, IL-2 10 μg/day, days 6-14, tail vein
Method: The GD3 expressing B16 cell B16•29-10 obtained in c. of the item (2) of Example 1 was suspended in PBS to give a density of 1×10^8 cells/ml, and 50 μl of the suspension was inoculated under the abdominal side skin of a C57 BL/6 mouse (male, 7-week-old, manufactured by Charles River). Six days after the tumor inoculation, the tumor diameter was measured using slide calipers to calculate the tumor volume by the following equation, and individuals having the value within the range of 10 to 80 mm^3 were selected.
Tumor volume=(width)^2×length×0.5
They were divided into groups in such a manner that the average tumor volume became uniform, and then the following administration groups of A to D were arranged to carry out continuous administration of the following agents from the tail vein once a day for 8 days (from the 6th day to 14th day).
C. IL-2 (Human Recombinant IL-2, Manufactured by Peprotech) Alone Group:
D. KM871+IL-2 Combined Administration Group:
The test was carried out using 5 animals for each group. Each agent was prepared to 200 μl per animal by diluting with a citrate buffer (an aqueous solution of 10 mM citric acid and 150 n sodium chloride, adjusted to pH 6 with sodium hydroxide). From the 6th day after the inoculation, the tumor volume was periodically measured, and the antitumor effects were judged by comparing the mean value of specific volume V/V0 in each group.

## IL-2: human IL-2; Immunase 35 (Shionogi) in xenograft test, human recombinant IL-2 (Peprotech) in syngeneic test [reference compound]
  tumor growth inhibitory effects (mean V/V0): antitumor effects were not found
